Among the data in ChEMBL document CHEMBL1152685, “Structural basis of the selectivity of the beta(2)-adrenergic receptor for fluorinated catecholamines” (Bioorg Med Chem, 2009) are Ratio Ki values, retold here.

What all share (format): cell-based
Experiment [1] concerns Beta-2 adrenergic receptor (Homo sapiens), P07550 [V117C]. The experiment in a line: Displacement of [3H]prazosin from human adrenergic beta2 receptor V117C mutant expressed in CHO cell membrane relative to wild type. On the technique in general: Loss of bound radioactivity is the signal in a displacement assay; it reports binding, not function.
Experiment [2] concerns Beta-2 adrenergic receptor (Homo sapiens), P07550 [T164I]. In words: Displacement of [3H]prazosin from human adrenergic beta2 receptor T164I mutant expressed in CHO cell membrane relative to wild type.
For experiment [3], the system named is Beta-2 adrenergic receptor (Homo sapiens), P07550 [D192G,F193V]. The experiment in a line: Displacement of [3H]prazosin from human adrenergic beta2 receptor D192G, F193V mutant expressed in CHO cell membrane relative to wild type.
Experiment [4] has as its system Beta-2 adrenergic receptor (Homo sapiens), P07550 [N293L]. In words: Displacement of [3H]prazosin from human adrenergic beta2 receptor N293L mutant expressed in CHO cell membrane relative to wild type.
In experiment [5] the test system is Beta-2 adrenergic receptor (Homo sapiens), P07550 [N293A]. The experiment in a line: Displacement of [3H]prazosin from human adrenergic beta2 receptor N293A mutant expressed in CHO cell membrane relative to wild type.
Experiment [6] has as its system Beta-2 adrenergic receptor (Homo sapiens), P07550 [N293Q]. In words: Displacement of [3H]prazosin from human adrenergic beta2 receptor N293Q mutant expressed in CHO cell membrane relative to wild type.
Experiment [7] concerns Beta-2 adrenergic receptor (Homo sapiens), P07550 [N293F]. The experiment in a line: Displacement of [3H]prazosin from human adrenergic beta2 receptor N293F mutant expressed in CHO cell membrane relative to wild type.

Take `NC[C@H](O)c1cc(O)c(O)cc1F`: the Ratio Ki worked out at 2.5 in experiment [1]; 2.4 in experiment [2]; 1.2 in experiment [3]; 7.4 in experiment [4]; 20.2 in experiment [5]; 4.3 in experiment [6]. The Ratio Ki in experiment [7] is 13.5.
